Source: BindingDB's records for US9315514

How the values were obtained:
Conditions in all cases: pH 7.4
[1] = biological target: Mu-type opioid receptor (Homo sapiens, UniProt P35372)
[2] = biological target: T1, Kappa-type opioid receptor (Homo sapiens, UniProt P41145)
[3] = biological target: T1, Kappa-type opioid receptor; remark: listed apart in the source

Row | Structure (SMILES) | EC50 [1] [nM] | Ki [2] [nM] | EC50 [3] [nM]
1 | COc1ccc2c3c1O[C@H]1[C@@]45CC[C@@]6(C[C@@H]4[C@@](C)(C(C)(C)C)OCO5)[C@@H](C2)N(CC2CC2)CC[C@]316 | 85.4 | 7.22 | 
2 | COc1ccc2c3c1O[C@H]1[C@@]45C=C[C@@]6(C[C@@H]4[C@@](C)(C(C)(C)C)OCO5)[C@@H](C2)N(CC2CC2)CC[C@]316 |  |  | 593
